PI5P4Ka inh: qHTS for Inhibitors of phosphatidylinositol 5-phosphate 4-kinase (PI5P4K); Phosphatidylinositol 5-phosphate 4-kinase type-2 alpha (Homo sapiens), P48426; PI5P4Kalpha enzyme, ADP-Glo luminescence, 60 min; active compounds read low; max response, %; 330,000 tested, 1.2% active; AID 652105, 2013; active means max response of -50% or lower; inconclusive means between -30% and -50%; inactive means -30% or higher; further: value at the top dose of about 77 µM; on the % scale 0 is the no-effect control and ±100 the full control effect
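ADP-Glo luminescence end-point after a 60 min room-temperature kinase reaction. PI5P4Kalpha and substrate in HEPES pH 7.4 buffer with EGTA, 0.1% CHAPS and 5% DMSO; ATP at 5 microM final.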
Rango complex inh: qHTS Assay for Inhibitors of Rango (Ran-regulated importin-beta cargo) - Importin beta complex formation; Importin subunit beta-1 (Homo sapiens), Q14974; Rango CFP/YFP FRET sensor + importin beta, 45 min; Potency, µM (top dose mostly 92.2 µM), inactives show top-dose inhibition of complex formation; 340,000 tested, 0.031% active; AID 540263, 2011; calls by dose curve;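 further: potency means the concentration at half of the fitted maximal effect; 0% = DMSO wells and 100% = buffer wells lacking importin beta; nearly all actives have a fitted effect of over 15% in size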
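Inhibition scored from the CFP 486 nm/YFP 530 nm FRET ratio 45 min after adding 0.125 microM importin beta to 50 nM Rango biosensor preincubated 5 min with compound (room temperature, PBS with DTT, Tween-20, BSA). No-importin wells as positive control.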
PLK1 PBD block: qHTS for Inhibitors of PLK1-PDB (polo-like kinase 1 - polo-box domain): Primary Screen | Serine/threonine-protein kinase PLK1 (Homo sapiens), P53350 | Plk1 PBD binding of FITC phosphopeptide, fluorescence polarization | Potency, µM, inactives show max response, negative = inhibition, usual class: inhibitors | 360,000 tested, 2.8% active; further: potency means the concentration at half of the fitted maximal effect; series mostly up to about 57 µM; on the % scale 0 is the no-effect control and ±100 the full control effect; nearly all actives have a fitted effect of over 65% in size
VDR inhibitor: Inhibitors of the vitamin D receptor (VDR): qHTS; Potency, µM, for the others: max response, negative = inhibition, usual class: inhibitors; AID 504847, 2011; VDR-SRC2-3 peptide fluorescence polarization, 2 h; Vitamin D3 receptor (Homo sapiens), P11473; 400,000 tested, 0.93% active; further: potency means the concentration at half of the fitted maximal effect; on the % scale 0 is the no-effect control and ±100 the full control effect
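Compounds are added to VDR with labelled SRC2-3 coactivator peptide and held 2 h at room temperature. Inhibition of the VDR–peptide interaction is then read as a change in fluorescence polarization.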
Rango release inh: qHTS Assay for Inhibitors of RanGTP induced Rango (Ran-regulated importin-beta cargo) - Importin beta complex dissociation; Snurportin-1 (Homo sapiens) + GTP-binding nuclear protein Ran (Homo sapiens) + Importin …; Biochemical FRET Rango-importin beta, RanGTP-induced dissociation; Potency, µM (doses to about 46.1 µM), for the others: top-dose activity change, negative = inhibition; 340,000 tested, 0.071% active; calls by dose curve; further: potency means the concentration at half of the fitted maximal effect; % of control where 0% means no effect; nearly all actives have a fitted effect of over 45% in size
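Compounds preincubate 5 min with complex of recombinant Rango and importin beta in PBS with 1 mM DTT. Ran (0.6 uM) loaded with 2 mM GTP plus 0.2 uM RCC1 starts dissociation; FRET is recorded 45 min later.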
KAT2A inh: qHTS Assay for Inhibitors of GCN5L2; Histone acetyltransferase KAT2A (Homo sapiens), Q92830; GCN5L2 HAT assay, ThioGlo1 CoA-SH fluorescence; Potency, µM (doses to about 58.9 µM), for inactives: top-dose activity change, negative = inhibition, usual class: inhibitors; 390,000 tested, 0.21% active; further: potency means the concentration at half of the fitted maximal effect; on the % scale 0 is the no-effect control and ±100 the full control effect
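qHTS, 1536-well. 20nM enzyme, pH 7.5 HEPES/EDTA/Tween-20 buffer; 15 min compound preinc., RT. Start: 75uM H3(1-25), 70uM AcCoA, 50uM ThioGlo1. Read Ex340/Em540 at t=0 (autofluorescence flag) and t=20 min.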
The depositor's hits bear a star; ? = inconclusive; nt = no result; ! = repeats disagree. Shown are actives, neighbours in structure and some others; about 3.6% of the full set was active somewhere. Unless noted, the call rests on the fitted dose curve; in most records, active means well fitted curve in the direction sought with a large enough effect; inconclusive means small, poorly fitted or top-dose-only effect, or another doubt; inactive means no such curve, though single readings can be large; an effect the other way counts as inactive or inconclusive.

Sequences of proteins named here, by UniProt entry; tags and fusion partners are left off.
Importin subunit beta-1 (Homo sapiens), Q14974, UniProt Q14974, whole entry, looked up: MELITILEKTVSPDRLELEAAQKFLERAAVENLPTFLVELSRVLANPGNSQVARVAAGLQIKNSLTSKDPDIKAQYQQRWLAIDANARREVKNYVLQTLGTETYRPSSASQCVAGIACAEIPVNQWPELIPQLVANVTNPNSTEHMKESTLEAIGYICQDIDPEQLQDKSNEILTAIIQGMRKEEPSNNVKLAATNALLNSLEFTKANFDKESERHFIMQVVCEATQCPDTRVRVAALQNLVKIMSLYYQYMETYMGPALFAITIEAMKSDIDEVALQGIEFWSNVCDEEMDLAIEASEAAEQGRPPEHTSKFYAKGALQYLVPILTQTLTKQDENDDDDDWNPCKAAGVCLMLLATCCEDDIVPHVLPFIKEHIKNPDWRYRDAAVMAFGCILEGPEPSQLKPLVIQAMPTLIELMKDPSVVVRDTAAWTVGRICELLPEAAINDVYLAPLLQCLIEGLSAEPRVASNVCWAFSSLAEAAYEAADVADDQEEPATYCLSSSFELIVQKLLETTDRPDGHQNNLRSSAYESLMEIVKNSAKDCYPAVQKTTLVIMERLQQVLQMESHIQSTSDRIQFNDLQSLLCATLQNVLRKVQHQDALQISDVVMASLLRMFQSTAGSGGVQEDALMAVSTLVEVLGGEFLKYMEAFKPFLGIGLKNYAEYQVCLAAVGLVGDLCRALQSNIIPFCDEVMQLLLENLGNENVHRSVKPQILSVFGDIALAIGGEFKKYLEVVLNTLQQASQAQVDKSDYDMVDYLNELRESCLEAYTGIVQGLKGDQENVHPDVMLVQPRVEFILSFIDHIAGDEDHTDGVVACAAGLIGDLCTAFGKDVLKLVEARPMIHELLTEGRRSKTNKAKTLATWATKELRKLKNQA
Serine/threonine-protein kinase PLK1 (Homo sapiens), P53350, UniProt P53350, whole entry, looked up: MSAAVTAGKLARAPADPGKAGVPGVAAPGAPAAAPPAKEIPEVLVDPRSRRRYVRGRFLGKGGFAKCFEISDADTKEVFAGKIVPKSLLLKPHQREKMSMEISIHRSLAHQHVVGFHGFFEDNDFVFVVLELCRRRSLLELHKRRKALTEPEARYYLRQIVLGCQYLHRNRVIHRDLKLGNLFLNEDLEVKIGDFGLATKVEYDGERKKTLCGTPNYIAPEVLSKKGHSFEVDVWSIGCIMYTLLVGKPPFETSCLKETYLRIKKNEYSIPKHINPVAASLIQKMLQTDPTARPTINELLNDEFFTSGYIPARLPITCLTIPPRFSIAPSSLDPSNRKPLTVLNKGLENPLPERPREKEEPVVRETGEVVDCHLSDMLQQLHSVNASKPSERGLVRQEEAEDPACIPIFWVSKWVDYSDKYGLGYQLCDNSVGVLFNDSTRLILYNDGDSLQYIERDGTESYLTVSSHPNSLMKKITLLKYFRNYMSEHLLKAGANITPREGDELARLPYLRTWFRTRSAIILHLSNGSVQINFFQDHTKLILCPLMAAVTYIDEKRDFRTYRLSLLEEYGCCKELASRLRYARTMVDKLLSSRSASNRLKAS
Histone acetyltransferase KAT2A (Homo sapiens), Q92830, UniProt Q92830, whole entry, looked up: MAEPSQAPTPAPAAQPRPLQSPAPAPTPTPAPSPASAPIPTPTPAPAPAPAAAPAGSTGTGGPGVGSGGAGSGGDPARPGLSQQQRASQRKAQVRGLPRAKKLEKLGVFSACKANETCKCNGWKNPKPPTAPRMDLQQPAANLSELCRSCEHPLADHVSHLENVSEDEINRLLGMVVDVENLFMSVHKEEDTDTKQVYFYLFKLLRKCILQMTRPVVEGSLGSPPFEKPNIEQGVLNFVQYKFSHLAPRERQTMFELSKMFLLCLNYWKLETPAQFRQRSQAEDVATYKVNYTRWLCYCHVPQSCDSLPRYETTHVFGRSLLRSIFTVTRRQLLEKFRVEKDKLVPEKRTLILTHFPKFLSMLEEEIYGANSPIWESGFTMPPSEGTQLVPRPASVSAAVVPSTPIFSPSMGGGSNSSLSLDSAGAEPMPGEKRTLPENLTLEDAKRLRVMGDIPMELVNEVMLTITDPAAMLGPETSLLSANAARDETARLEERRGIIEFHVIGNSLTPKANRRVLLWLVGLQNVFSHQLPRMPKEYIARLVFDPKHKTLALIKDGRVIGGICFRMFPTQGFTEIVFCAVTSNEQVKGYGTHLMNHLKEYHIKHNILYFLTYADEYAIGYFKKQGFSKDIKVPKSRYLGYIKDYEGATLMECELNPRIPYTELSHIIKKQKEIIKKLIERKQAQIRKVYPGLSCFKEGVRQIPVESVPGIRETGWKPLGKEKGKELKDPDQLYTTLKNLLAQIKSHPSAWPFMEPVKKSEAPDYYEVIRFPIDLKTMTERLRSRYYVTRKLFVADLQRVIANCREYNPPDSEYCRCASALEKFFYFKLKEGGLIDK

#1 O=c1[nH]c(=S)[nH]c(O)c1N=Nc1ccc(S(=O)(=O)N2CCc3ccccc32)cc1
#2 O=c1[nH]c(=S)[nH]c(O)c1N=Nc1ccc(SC(F)F)cc1
#3 O=C1NC(=S)NC(=O)C1=Cc1ccc2c(c1)CCN2CCCCl
#4 CC[C@H](Oc1ccc(Cl)cc1)C(=O)OC1C[C@H]2CC[C@@H](C1)N2C (stereo not given in full)
#5 CCOP(=S)(OCC)Oc1ccc(Cl)cc1Cl
#6 O=C(O)COc1ccc(Cl)cc1Cl
#7 CCOP(=O)(OCC)O/C(=C/Cl)c1ccc(Cl)cc1Cl
#8 CCCSP(=S)(OCC)Oc1ccc(Cl)cc1Cl (stereo not given)

screen / no.	1	2	3	4	5	6	7	8
PI5P4Ka inh	-57.9*	-57.1*	-92.3*	nt	nt	-8.3	nt	nt
Rango complex inh	0.0%	-0.5%	-1.5%	nt	nt	-0.7%	nt	nt
PLK1 PBD block	0.0%	10.6µM*	2.67µM*	nt	nt	?	nt	nt
VDR inhibitor	-6.8%	-6.2%	?	-2.0%	50.1µM*	-18.8%	2.6%	7.08µM*
Rango release inh	-13.3%	12.0%	-0.8%	nt	nt	15.0%	nt	nt
KAT2A inh	-18.4%	-19.2%	3.3%	-7.3%	-13.9%	-2.2%	-10.2%	-19.4%

#9 COc1cc(/C=C/c2nc3ccccc3c(=O)n2-c2ccc(Br)c(C)c2)ccc1O
#10 COc1ccc(CC2NC[C@H](O)[C@H]2OC(C)=O)cc1 (stereo not given in full)
#11 COC(=O)C12CC3=CC(CC3=O)Cc3ccccc3[C@@H]1CNC2=O (stereo not given in full)
#12 CCOC(=O)c1c(-n2c(C)cc(/C=C3/C(=O)NC(=O)N(CC)C3=O)c2C)sc2c1CCCC2
#13 CCOC(=O)c1c(-n2c(C)cc(C=C3C(=O)NC(=S)NC3=O)c2C)sc2c1CCCC2
#14 Cc1ccc(N2C(=O)NC(=O)/C(=C\c3cc(C)n(-c4sc5c(c4C#N)CCCC5)c3C)C2=O)cc1
#15 CCN1C(=O)NC(=O)/C(=C/c2cc(C)n(-c3sc(C)c(C)c3C#N)c2C)C1=O
#16 Cc1cc(/C=C2\C(=O)NC(=O)N(Cc3ccccc3)C2=O)c(C)n1C1CC1

screen / no.	9	10	11	12	13	14	15	16
PI5P4Ka inh	nt	nt	nt	-16.7	-63.3*	?	?	-7.1
Rango complex inh	nt	nt	nt	-0.1%	?	-2.4%	4.5%	?
PLK1 PBD block	nt	nt	nt	?	0.299µM*	0.597µM*	2.12µM*	-14.2%
VDR inhibitor	-0.6%	12.3%	-26.6%	2.4%	?	44.7µM*	?	2.4%
Rango release inh	nt	nt	nt	-15.5%	1.8%	-6.4%	-15.6%	?
KAT2A inh	-1.6%	-0.9%	nt	nt	3.2%	23.7%	-21.9%	-7.0%

#17 O=[N+]([O-])c1cc(S(=O)(=O)c2ccc(O)c([N+](=O)[O-])c2)ccc1O
#18 O=[N+]([O-])c1cccc(O)c1
#19 CCN(CC)C(=O)c1c(C)[nH]c(=S)c(C#N)c1-c1ccco1
#20 On1ccccc1=S
#21 CCN1CC2(OC(=O)c3ccccc3NC(C)=O)CCC(OC)[C@]34C1[C@H](CC23)[C@@]1(O)C[C@H](OC)[C@H]2CC4C1(O)[C@H]2OC (stereo not given in full)
#22 CC(=O)OC1CC2C(C)(C)C(O)C=C[C@@]2(C)C2CC[C@]3(C)C(=CC(=O)OC3c3ccoc3)[C@]12C (stereo not given in full)
#23 NC(=O)CSc1nc2cc(S(=O)(=O)N3CCOCC3)ccc2o1
#24 CCN(CC)c1ccc(N=Cc2c(O)[nH]c(=O)[nH]c2=O)cc1

screen / no.	17	18	19	20	21	22	23	24
PI5P4Ka inh	-64.2*	1.5	-96.5*	-100.2*	nt	nt	0.3	?
Rango complex inh	4.9%	3.0%	-3.1%	-5.5%	nt	nt	-0.8%	?
PLK1 PBD block	-25.3%	-8.0%	2.67µM*	?	nt	nt	11.9µM*	-9.2%
VDR inhibitor	-12.9%	12.8%	?	22.4µM*	-0.2%	25.1µM*	?	79.4µM*
Rango release inh	13.6%	-7.3%	3.8%	-17.6%	nt	nt	6.6%	?
KAT2A inh	-3.2%	-6.3%	-24.0%	12.6µM*	-5.2%	-16.3%	-17.8%	-8.7%

Complete entries as entered above. Values in the order: PI5P4Ka inh, Rango complex inh, PLK1 PBD block, VDR inhibitor, Rango release inh, KAT2A inh
NC(=O)CSc1nc2cc(S(=O)(=O)N3CCOCC3)ccc2o1 in the list: 0.3, -0.8%, 11.9µM*, ?, 6.6%, -17.8%
O=[N+]([O-])c1cc(S(=O)(=O)c2ccc(O)c([N+](=O)[O-])c2)ccc1O in the list: -64.2*, 4.9%, -25.3%, -12.9%, 13.6%, -3.2%
CC(=O)OC1CC2C(C)(C)C(O)C=C[C@@]2(C)C2CC[C@]3(C)C(=CC(=O)OC3c3ccoc3)[C@]12C (stereo not given in full) in the list: nt, nt, nt, 25.1µM*, nt, -16.3%
O=C1NC(=S)NC(=O)C1=Cc1ccc2c(c1)CCN2CCCCl in the list: -92.3*, -1.5%, 2.67µM*, ?, -0.8%, 3.3%

(next part)
#25 CCN(CC)c1ccc(N=Cc2c(O)n(-c3ccccc3)c(=O)[nH]c2=O)cc1
#26 c1ccc([Se]c2c(-c3ccccc3)[se]c3ccccc23)cc1
#27 CCCCCCCCCCCCCCCC[n+]1ccccc1
#28 COC1=CC2C3Cc4ccc(OC)c(O)c4[C@]2(CCN3C)CC1=O (stereo not given in full)
#29 CC(C)(O)C1O[C@H]2CC[C@@]3(C)[C@@](O)(CC[C@H]4Cc5c([nH]c6ccccc56)[C@@]43C)C2=CC1=O (stereo not given in full)
#30 COc1cc(CN2CCN(C(=O)Cc3ccccc3)CC2)cc(OC)c1OC
#31 COc1cc(/C=C2/SC(=S)N(Cc3ccccc3)C2=O)ccc1OCC(=O)O
#32 CC1=C(O)C(=O)C=C2C1=CC=C1[C@]2(C)CC[C@@]2(C)C3C[C@](C)(C(=O)O)CC[C@@]3(C)CC[C@@]12C (stereo not given in full)

screen / no.	25	26	27	28	29	30	31	32
PI5P4Ka inh	-1.1	nt	-13.2	nt	nt	1.4	-16.7	nt
Rango complex inh	?	nt	65.1µM*!	nt	nt	-2.1%	?	nt
PLK1 PBD block	-3.0%	nt	0.0%	nt	nt	0.1%	?	nt
VDR inhibitor	-23.4%	63.1µM*	-4.5%	2.2%	-10.5%	2.1%	89.1µM*	3.55µM*
Rango release inh	?	nt	?	nt	nt	6.1%	?	nt
KAT2A inh	-0.8%	-11.5%	9.8%	15.0%	-27.3%	0.1%	?	12.6µM*

#33 C=C[C@@H]1CN2CC[C@H]1C[C@H]2[C@H](O)c1ccnc2ccccc12
#34 CC(=O)OC1CCC2(C)C3=C(CCC2C1(C)C)[C@]1(C)CCC(C(C)CCC=C(C)C)[C@]1(C)CC3 (stereo not given in full)
#35 C/C(=C/CCC(C)[C@H]1CC[C@@]2(C)C3=C(CC[C@]12C)[C@@]1(C)CCC(=O)C(C)(C)[C@@H]1CC3)C(=O)O (stereo not given in full)
#36 CC(C)=CCCC(C)C1CC[C@@]2(C)C3=C(CC[C@@]12C)C1(C)CCC(O)C(C)(C)C1CC3 (stereo not given in full)
#37 CCC1CN2CCc3cc(OC)c(OC)cc3C2CC1CC1NCCc2cc(OC)c(OC)cc21 (stereo not given)

screen / no.	33	34	35	36	37
PI5P4Ka inh	nt	nt	-0.3	nt	nt
Rango complex inh	nt	nt	-5.2%	nt	nt
PLK1 PBD block	nt	nt	13.4µM*	nt	nt
VDR inhibitor	0.9%	?	?	35.5µM*	-1.5%
Rango release inh	nt	nt	-14.8%	nt	nt
KAT2A inh	-9.5%	-5.0%	?	-9.6%	-1.0%

Source: PubChem BioAssay
